Laboratory results published in patent US20040157809A1, “Composition comprising an androgen receptor blocker and an insulin sensitizing agent and use thereof for treatment of polycystic ovary syndrome” (priority 2001, published 2004).

System: women with ovarian hyperandrogenism
Experiment: Example 1: clinical, biochemical and endocrine-metabolic variables on flutamide, metformin or flutamide-metformin
Assay type: in vivo, human
Conditions: after 9 months, flutamide 250 mg/day, metformin 1275 mg/day, mean

## CC(C)C(=O)Nc1ccc([N+](=O)[O-])c(C(F)(F)F)c1 [Flutamide, 2-methyl-N-[4-nitro-3(trifluoromethyl)phenyl] popanamide]
  Androstenedione: 272 ng/dL
  Body mass index: 22.3 Kg/m^2
  DHEAS: 231 µg/dL
  Estradiol: 64 pg/mL
  FSH: 4.6 IU/L
  Ferriman & Gallwey score: 14.1
  Glucose: 83 mg/dL
  HDL-cholesterol: 55 mg/dL
  Insulin: 14.4 mU/L
  Insulin Sensitivity (HOMA %): 69.9%
  LDL-cholesterol: 106 mg/dL
  LH: 8.8 IU/L
  SHBG: 0.8 µg/dL
  Testosterone: 108 ng/dL
  Total cholesterol: 182 mg/dL
  Triglycerides: 94 mg/dL
Peak 17-hydroxyprogesterone after GnRH agonist
  Peak 17-OHP: 216
